The values below come from BindingDB's records for doi:10.1021/jm015521r (Research Triangle Institute, 2001).

This test is described as follows: Inhibition of stimulation of [35S]GTP-gamma-S, binding produced by the selective agonist (SNC-80, delta-receptor), in guinea pig caudate membranes.

As usually defined, the Ki is a measure of affinity in units of concentration, obtained from inhibition or displacement. As for `CC(C)[C@@H](CN1CC[C@@](C)(c2cccc(O)c2)[C@@H](C)C1)NC(=O)C1Cc2ccc(O)cc2CN1` (stereo partly specified) [7-Hydroxy-1,2,3,4-tetrahydro-isoquinoline-3-carboxylic acid {1-[4-(3-hydroxy-phenyl)-3,4-dimethyl-piperidin-1-ylmethyl]-2-methyl-propyl}-amide], the Ki is more than 0.3 µM.
